Protein sequences, listed by entry. Tags and fused reporters are not part of them. Lines headed by an entry give the natural chain unless they say otherwise; changes in a name come on top.
UniProt P14920: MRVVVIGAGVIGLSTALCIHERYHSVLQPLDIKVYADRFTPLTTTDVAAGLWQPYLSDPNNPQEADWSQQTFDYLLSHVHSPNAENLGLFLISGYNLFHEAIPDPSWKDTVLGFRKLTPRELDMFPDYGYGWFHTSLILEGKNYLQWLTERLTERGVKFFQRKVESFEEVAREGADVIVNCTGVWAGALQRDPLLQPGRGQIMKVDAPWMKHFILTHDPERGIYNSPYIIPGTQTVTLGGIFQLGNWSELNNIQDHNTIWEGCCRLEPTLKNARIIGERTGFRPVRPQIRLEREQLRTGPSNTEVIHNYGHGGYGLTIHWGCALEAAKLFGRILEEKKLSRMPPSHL

According to patent US20130052281A1, “NOVEL COMPOUNDS” (Takeda Pharmaceutical Company Limited, priority 2011, published 2013):

Molecular target: Human DAAO enzyme (Homo sapiens, UniProt P14920)
Test: In Vitro DAAO Enzyme Assay (Amplex Red detection of H2O2 from D-Serine)
Format: biochemical
Conditions: inhibition of DAAO activity in the presence of 10 mM D-Serine; 60 minutes at 25° C.; ten point dose-response
Procedure: The Km of D-Serine was measured for each enzyme batch to maintain consistency; this Km was used in subsequent assays.
On the day of the assay compounds were serially diluted in DMSO before being diluted 1:20 with assay buffer (20 mM Tris ph 7.4). […] Finally 5 μl ‘Amplex’ red reagent (Invitrogen) was added to all wells as per manufacturer's protocol. The plate was incubated for 60 minutes in the dark at 25° C. and the fluorescence in each well was measured in the Envision plate reader.
Concentration response curves were generated using the average of duplicate wells for each data point and analyzed using non-linear regression and four parameter curve fit.

IC50: 21 nM
Compound: O=c1[nH]nc(CCc2ccc(C(F)(F)F)cn2)cc1O [Example 3, 4-Hydroxy-6-{2-[5-(trifluoromethyl)pyridin-2-yl]ethyl}pyridazin-3(2H)-one]
